{"sequences": {"note": "Amino acid sequences for entries named in this document (tags omitted). A change or cut given only in a name is not applied to a line headed by its entry.", "UniProt P22303": "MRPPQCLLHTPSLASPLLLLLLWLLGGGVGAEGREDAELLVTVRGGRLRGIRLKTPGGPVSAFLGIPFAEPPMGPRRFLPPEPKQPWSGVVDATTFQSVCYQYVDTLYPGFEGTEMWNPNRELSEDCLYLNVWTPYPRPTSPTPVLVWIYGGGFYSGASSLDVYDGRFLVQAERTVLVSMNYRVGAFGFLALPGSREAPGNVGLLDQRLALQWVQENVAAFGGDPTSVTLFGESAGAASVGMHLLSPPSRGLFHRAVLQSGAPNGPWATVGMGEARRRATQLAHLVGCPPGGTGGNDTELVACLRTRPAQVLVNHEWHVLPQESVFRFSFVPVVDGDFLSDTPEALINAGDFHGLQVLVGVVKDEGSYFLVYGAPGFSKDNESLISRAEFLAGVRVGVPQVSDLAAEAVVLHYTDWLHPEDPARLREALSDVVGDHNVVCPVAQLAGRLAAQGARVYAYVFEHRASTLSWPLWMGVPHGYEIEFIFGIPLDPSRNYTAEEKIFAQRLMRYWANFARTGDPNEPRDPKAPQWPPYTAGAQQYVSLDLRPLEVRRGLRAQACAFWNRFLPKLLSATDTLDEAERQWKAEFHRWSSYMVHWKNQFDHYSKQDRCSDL"}, "source": "PubChem BioAssay (Tox21)", "note": "This is a selection; strong and weak results do not stand in their true shares. Records with an inconclusive call do not appear. A structure can be active in one record and inactive in another. Active and inactive are the calls of the source. Calls follow the shape of the full dose curve. % is scaled to controls: 0 for no effect and ±100 for the full control effect; potency is read from the fitted curve at half-maximal effect.", "data": [{"target": "Acetylcholinesterase (Homo sapiens) (UniProt P22303)", "assay": "Acetylcholinesterase (AChE) small molecule antagonists: fluorescence cell-based qHTS assay (AID 1347398); also: nearly all actives have a fitted effect of over 50% in size", "conditions": "SH-SY5Y cells; Potency: AChE activity; series mostly up to 115 µM; activity change, negative = inhibition: at the top concentration", "text": "National Center for Advancing Translational Sciences [NCATS]\nDivision of Preclinical Innovation [DPI]\nU.S. Environmental Protection Agency [EPA]\nNational Institutes of Environmental Health Sciences [NIEHS]\nNational Toxicology Program [NTP]\nU.S. Food and Drug Administration [FDA]\nAcetylcholinesterase (AChE) is the primary cholinesterase in the body that hydrolyzes a key neurotransmitter, acetylcholine. Inhibition of AChE activity can lead to neurotoxicity. Known inhibitors of AChE include organophosphorous pesticides (OP), chemical warfare agents, drugs, and various phytochemicals.\nA homogenous cell-based assay using Amplitetrade mark Fluorimetric Acetylcholinesterase Assay Kit *Green Fluorescence* (AAT Bioquest, Sunnyvale, CA) was used to evaluate the chemicals in the Tox21 10K library that inhibit AChE activity. The assay uses Thiolite Green to quantify the thiocholine produced from the hydrolysis of acetylthiocholine by AChE from the SH-SY5Y cells. AChE can hydrolyze acetylthiocholine to create thiocholine. Thiolite Green is fluorescent when reacting with thiocholine. It has spectral properties similar to those of fluorescein. The fluorescence intensity of Thiolite Green is used to measure AChE activity. Its signal can be easily read by a fluorescence microplate reader at Ex/Em = 490/520 nm.\nTox21 Assay Protocol Summary:\nFor cell-based AChE assay, 2,000 SH-SY5Y cells in 4 uL/well were dispensed into black, clear-bottom 1536-well plates using a Multidrop Combi (Thermo Scientific) dispenser. The assay plates were incubated overnight at 37 C to allow cells to attach to the wells, followed by the transfer of 23 nL compound or DMSO (vehicle control) by a Pintool station (Wako Automation, CA). The plates were incubated for 30 min at 37 C and 5% CO2, followed by the addition of 4 uL of detection cocktail solution (ThioliteGreen, acetylthiocholine) into each well using Flying Reagent Dispenser (Beckman Coulter, CA) and then following 40 min incubation at room temperature. Fluorescent intensity (Ex/Em = 490/520 nm) was measured using an Envision plate reader (PerkinElmer, MA).", "values": [{"smiles": "O=C(Cl)Oc1ccccc1", "activity change, negative = inhibition": "inactive: 4.33%"}, {"smiles": "O=P(Cl)(Oc1ccccc1)Oc1ccccc1", "activity change, negative = inhibition": "inactive: -7.64%"}, {"smiles": "CCCCOP(OCCCC)OCCCC", "Potency": "active: 35.6 µM"}, {"smiles": "COP(=S)(Cl)OC", "activity change, negative = inhibition": "inactive: -0.0241%"}, {"smiles": "Cc1cc([N+](=O)[O-])cc([N+](=O)[O-])c1O", "Potency": "inactive"}, {"smiles": "O=[N+]([O-])c1ccc([N+](=O)[O-])cc1", "activity change, negative = inhibition": "inactive: -12.7%"}, {"smiles": "CCOC(=O)Cl", "activity change, negative = inhibition": "inactive: 0.273%"}, {"smiles": "CCCCCCCCCCCCCC[P+](CCCCCC)(CCCCCC)CCCCCC", "activity change, negative = inhibition": "inactive: -8.99%"}, {"smiles": "CCCCO[P+](=O)OCCCC", "Potency": "inactive"}, {"smiles": "ClP(Cl)c1ccccc1", "activity change, negative = inhibition": "inactive: 1.22%"}, {"smiles": "CCC(C)(OOC(C)(C)C)OOC(C)(C)C", "activity change, negative = inhibition": "inactive: -1.94% [at 23.8 µM]"}, {"smiles": "CN(C(=O)Cc1ccc(Cl)c(Cl)c1)[C@H]1CC[C@@]2(CCCO2)C[C@@H]1N1CCCC1", "activity change, negative = inhibition": "inactive: 0.676% [at 53.7 µM]"}, {"smiles": "CCNC(C)Cc1ccc2c(c1)OCO2", "note": "(stereo not drawn)", "activity change, negative = inhibition": "inactive: 0.905%"}, {"smiles": "Cc1cc([N+](=O)[O-])c(O)c([N+](=O)[O-])c1", "activity change, negative = inhibition": "inactive: -9.03%"}, {"smiles": "CN(C(=O)Cc1cccc2occc12)[C@H]1CC[C@@]2(CCCO2)C[C@@H]1N1CCCC1", "activity change, negative = inhibition": "inactive: -1.47%"}, {"smiles": "O=P(Cl)(Cl)c1ccccc1", "activity change, negative = inhibition": "inactive: 1.89%"}, {"smiles": "O=[As]c1ccccc1", "note": "(stereo not drawn)", "activity change, negative = inhibition": "inactive: 0.663%"}, {"smiles": "CCCCC(CC)CO[P+](=O)OCC(CC)CCCC", "note": "(stereo not drawn)", "activity change, negative = inhibition": "inactive: -9.8%"}, {"smiles": "CCOP(=S)(CC)Sc1ccccc1", "note": "(stereo not drawn)", "activity change, negative = inhibition": "inactive: -24.1%"}, {"smiles": "O=[P+](Oc1ccccc1)Oc1ccccc1", "activity change, negative = inhibition": "inactive: -3.83%"}, {"smiles": "COC(=O)Cl", "activity change, negative = inhibition": "inactive: 4.86%"}, {"smiles": "CN(C(=O)Cc1ccccc1)[C@H]1CC[C@@]2(CCCO2)C[C@@H]1N1CCCC1", "activity change, negative = inhibition": "inactive: -18.2% [at 53.7 µM]"}, {"smiles": "O=[p+]1oc2ccccc2c2ccccc21", "note": "(stereo not drawn)", "activity change, negative = inhibition": "inactive: 0.361%"}]}]}
